Measurements taken from PubChem BioAssay AID588664 (The Scripps Research Institute Molecular Screening Center, 2011).
This is a selection; strong and weak results do not stand in their true shares. Activity calls are given as the source filed them. Rule as the data show it: active = inhibition above about 5% (passing the limit was not always enough); inactive = the rest.

Amino acid sequences for entries named in this document (tags omitted). A change or cut given only in a name is not applied to a line headed by its entry.
UniProt P00519, whole entry, looked up: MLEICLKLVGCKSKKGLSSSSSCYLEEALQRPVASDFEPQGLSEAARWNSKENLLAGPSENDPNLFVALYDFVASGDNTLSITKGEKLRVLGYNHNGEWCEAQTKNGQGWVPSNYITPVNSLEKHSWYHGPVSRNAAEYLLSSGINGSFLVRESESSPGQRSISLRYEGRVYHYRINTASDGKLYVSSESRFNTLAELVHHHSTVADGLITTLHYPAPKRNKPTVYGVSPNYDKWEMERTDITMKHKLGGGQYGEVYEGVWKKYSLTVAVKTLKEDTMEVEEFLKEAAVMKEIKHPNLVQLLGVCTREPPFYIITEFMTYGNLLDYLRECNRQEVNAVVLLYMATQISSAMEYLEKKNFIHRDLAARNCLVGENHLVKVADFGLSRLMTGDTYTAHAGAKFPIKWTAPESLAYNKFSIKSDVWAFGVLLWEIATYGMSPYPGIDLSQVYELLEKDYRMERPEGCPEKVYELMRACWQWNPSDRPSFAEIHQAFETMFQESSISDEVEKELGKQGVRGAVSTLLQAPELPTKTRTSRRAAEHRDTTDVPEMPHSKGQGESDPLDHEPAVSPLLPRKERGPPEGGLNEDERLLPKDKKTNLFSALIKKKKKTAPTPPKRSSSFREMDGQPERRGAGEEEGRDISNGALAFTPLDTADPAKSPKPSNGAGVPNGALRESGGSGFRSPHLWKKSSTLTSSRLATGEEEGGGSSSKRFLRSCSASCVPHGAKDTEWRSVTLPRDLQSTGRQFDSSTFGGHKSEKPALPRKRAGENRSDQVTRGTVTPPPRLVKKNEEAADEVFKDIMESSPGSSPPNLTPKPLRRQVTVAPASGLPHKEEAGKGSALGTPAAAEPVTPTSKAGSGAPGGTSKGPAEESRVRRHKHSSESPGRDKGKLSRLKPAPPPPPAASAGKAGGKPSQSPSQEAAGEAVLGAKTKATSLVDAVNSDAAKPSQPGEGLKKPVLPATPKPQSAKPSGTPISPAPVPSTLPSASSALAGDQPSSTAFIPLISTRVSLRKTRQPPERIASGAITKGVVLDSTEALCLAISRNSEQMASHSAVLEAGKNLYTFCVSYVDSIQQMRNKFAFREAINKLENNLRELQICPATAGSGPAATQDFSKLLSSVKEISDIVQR
UniProt Q13671: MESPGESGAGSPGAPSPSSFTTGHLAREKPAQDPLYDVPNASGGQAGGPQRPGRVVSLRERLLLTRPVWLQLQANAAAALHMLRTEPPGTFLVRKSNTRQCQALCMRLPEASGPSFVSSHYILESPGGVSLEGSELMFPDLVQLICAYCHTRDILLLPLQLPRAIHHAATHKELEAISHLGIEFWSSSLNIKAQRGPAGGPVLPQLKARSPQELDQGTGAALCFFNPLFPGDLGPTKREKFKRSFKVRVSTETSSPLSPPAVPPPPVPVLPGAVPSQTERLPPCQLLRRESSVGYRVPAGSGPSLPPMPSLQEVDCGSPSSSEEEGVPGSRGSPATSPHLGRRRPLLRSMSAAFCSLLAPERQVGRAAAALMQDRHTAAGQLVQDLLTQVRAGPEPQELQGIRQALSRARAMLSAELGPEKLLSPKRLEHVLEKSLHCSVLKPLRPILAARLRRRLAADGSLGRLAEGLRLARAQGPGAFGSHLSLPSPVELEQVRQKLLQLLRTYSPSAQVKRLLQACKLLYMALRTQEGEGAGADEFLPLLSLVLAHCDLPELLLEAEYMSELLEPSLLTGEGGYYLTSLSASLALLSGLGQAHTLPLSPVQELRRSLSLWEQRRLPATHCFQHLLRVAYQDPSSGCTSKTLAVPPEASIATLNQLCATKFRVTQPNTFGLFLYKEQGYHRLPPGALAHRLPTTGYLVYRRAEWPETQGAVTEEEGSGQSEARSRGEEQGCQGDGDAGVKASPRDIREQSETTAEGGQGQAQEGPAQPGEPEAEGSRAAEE

The molecules below were run against Tyrosine-protein kinase ABL1 (Homo sapiens) + Ras and Rab interactor 1 (Homo sapiens) (UniProt P00519+Q13671) (assay: inhibitors of Rin1-Abl protein binding, primary screen, biochemical, TR-FRET (AID 588664)). Conditions: at 7.35 µM, hits give high values.

Row | Structure (SMILES) | inhibition
1 | COc1cc(C(=O)NCC2(N3CCOCC3)CCCCC2)cc(Cl)c1OC(C)C | inactive: 1.86%
2 | O=[As](O)(O)c1cccnc1 | inactive: -2.97%
3 | CCOP1(=S)c2c(C)nn(CCC#N)c2N=C(c2ccc(F)cc2)N1C (stereo unspecified) | inactive: 2.31%
4 | CN(C(=O)Cc1ccccc1)[C@@H]1CC[C@]2(CCCO2)C[C@H]1N1CCCC1 | inactive: -4.16%
5 | N#CCCN(C(=O)COC(=O)C(O)(c1ccccc1)c1ccccc1)c1ccc(F)cc1 | inactive: 1.6%
6 | CN(C(=O)Cc1ccc(Cl)c(Cl)c1)[C@H]1CC[C@@]2(CCCO2)C[C@@H]1N1CCCC1 | inactive: 4.23%
7 | CN(C)C(=O)c1cc([N+](=O)[O-])cc2c1-c1c(cc([N+](=O)[O-])cc1[N+](=O)[O-])C2=O | inactive: -6.04%
8 | O=[N+]([O-])c1ccc2c(c1)nnn2O | inactive: 2.01%
9 | NC(=O)Nc1ccc([As](=O)(O)O)cc1 | inactive: 1.07%
10 | Nc1ccccc1[As](=O)(O)c1ccccc1 | inactive: 1.59%
11 | O=C(O)COc1ccc([As](=O)(O)O)cc1[N+](=O)[O-] | inactive: 2.04%
12 | O=P(Nc1nccs1)(c1ccccc1)c1nc2ccccc2s1 (stereo unspecified) | inactive: -0.99%
13 | O=P(Nc1nccs1)(Oc1ccccc1)Oc1ccccc1 | inactive: 2.33%
14 | CCOP1(=S)c2c(C)nn(CCC#N)c2N=C(c2ccccc2F)N1C (stereo unspecified) | inactive: -2.2%
15 | CS(=O)(=O)c1cc([N+](=O)[O-])c2no[n+]([O-])c2c1 | inactive: -5.65%
16 | O=[N+]([O-])c1cc([N+](=O)[O-])c(-c2ccn[nH]2)s1 | inactive: -1.65%
17 | CCN(CC)C(=S)SC(NC=O)C(Cl)(Cl)Cl (stereo unspecified) | inactive: 1.62%
18 | O=C(OC1CN2CCC1CC2)c1cccc2[nH]cnc12 (stereo unspecified) | inactive: 0.95%
19 | CC(C)NC(=O)NP(=O)(Oc1ccccc1)Oc1ccccc1 | inactive: 5.42%

Row | Structure (SMILES) | inhibition
20 | ClCCSc1nnc(-c2cccnc2)o1 | inactive: 3.34%
21 | CC(C)c1ccc(OP(=O)(Nc2ccccn2)Oc2ccccc2F)cc1 (stereo unspecified) | inactive: 2.72%
22 | COC(=O)C1(C)COP(=O)(N2CCCCCC2)OC1 (stereo unspecified) | inactive: 1.88%
23 | Cc1ccc(OP(=O)(Nc2ccc([N+](=O)[O-])cn2)Oc2ccc(C)cc2)cc1 | inactive: -2.02%
24 | Cc1ccc2nc3c(c(C)c2c1)CC(C(Cl)Cl)S3 (stereo unspecified) | inactive: -5.47%
25 | COc1cc(C(=O)NCC2(N3CCOCC3)CCCCC2)ccc1OCC(C)C | inactive: 3.94%
26 | O=[N+]([O-])c1ccc(-c2cc([N+](=O)[O-])c(O)c([N+](=O)[O-])c2)cc1 | inactive: 1.79%
27 | C[As](=O)(O)c1cccc(C(=O)O)c1 | inactive: 0.4%
28 | O=[As](O)(c1ccc(O)cc1)c1ccccc1O | inactive: -2.13%
29 | O=[N+]([O-])c1cc(Oc2ccc([N+](=O)[O-])cc2C(F)(F)F)cc([N+](=O)[O-])c1 | inactive: 1.81%
30 | COc1ccc(N/C(=N/P(=O)(N2CCOCC2)N2CCOCC2)N2CCOCC2)cc1 | inactive: 0.19%
31 | O=P1(N(CCCl)CCCl)Nc2ccccc2N1 | inactive: 4.78%
32 | O=P1(N(CCCl)CCCl)OCCCN1CCCl (stereo unspecified) | inactive: -2.33%
33 | COc1cc(I)ccc1[As](=O)(O)O | inactive: -4.01%
34 | COc1ccc2nc(NP(=O)(c3ccccc3)c3ccccc3)sc2c1 | inactive: -1.65%
35 | Cc1c2c(nc3ccccc13)SC(C(Cl)Cl)C2 (stereo unspecified) | inactive: 1.52%
36 | Cc1cc(=O)[nH]c(N[N+](=O)[O-])n1 | inactive: 0.33%
37 | O=C(OC1CN2CCC1CC2)C12CC3CC(CC(C3)C1)C2 (stereo unspecified) | inactive: 1.14%
38 | CCC(C)N(CC(C)C)C(=S)SC(NC(C)=O)C(Cl)(Cl)Cl (stereo unspecified) | inactive: 1.44%

Row | Structure (SMILES) | inhibition
39 | CSc1ccc(Nc2c([N+](=O)[O-])cc([N+](=O)[O-])cc2[N+](=O)[O-])cc1 | inactive: -5.52%
40 | O=C(OC1CN2CCC1CC2)c1cccc([N+](=O)[O-])c1 (stereo unspecified) | inactive: -1.74%
41 | CCOC(=O)c1ccc(NC(=O)C(C)(CCl)SC)cc1 (stereo unspecified) | inactive: -2.78%
42 | O=C(O)C(=O)c1ccc(N(CCCl)CCCl)cc1 | inactive: -5.33%
43 | O=C(Nc1ccncc1[N+](=O)[O-])c1ccc([N+](=O)[O-])cc1[N+](=O)[O-] | inactive: -0.23%
44 | O=C(COc1ccccc1)OC1CN2CCC1CC2 (stereo unspecified) | inactive: -3.9%
45 | COC(=O)C1(C)COP(=O)(N2CCCC2)OC1 (stereo unspecified) | inactive: 4.16%
46 | COP1(=S)c2c(C)nn(CCC#N)c2N=C(c2ccc(F)cc2)N1C (stereo unspecified) | inactive: 0.27%
47 | O=P(Nc1ccccn1)(c1cccc2ccccc12)c1cccc2ccccc12 | inactive: 5.67%
48 | Cc1cc(SC(NC=O)C(Cl)(Cl)Cl)ncn1 (stereo unspecified) | inactive: 0.78%
49 | O=[N+]([O-])c1ccc(Nc2ccc(Oc3ccc([N+](=O)[O-])cc3[N+](=O)[O-])cc2)c([N+](=O)[O-])c1 | inactive: 1.14%
50 | CCOC(=O)Nc1cccc([As](=O)(O)O)c1 | inactive: 1.92%
51 | COP(=O)(OC)N1CC1c1ccccc1 (stereo unspecified) | inactive: -3.52%
52 | Cc1cc(SC(NC(=O)c2ccccc2)C(Cl)(Cl)Cl)nc(C(C)C)n1 (stereo unspecified) | inactive: 2.78%
53 | CCCCOc1ccc(C(=O)NCC2(N3CCCCC3)CCCCC2)cc1OC | inactive: 1.28%
54 | CCOC(=O)Nc1ccc([As](=O)(O)O)c(O)c1 | inactive: -2.73%
55 | O=C(O)C(O)c1ccc(N(CCCl)CCCl)cc1 (stereo unspecified) | inactive: -0.41%
56 | CC1CCNP(=O)(N(CCCl)CCCl)O1 (stereo unspecified) | inactive: 1.92%
